From patent US8530494B2, “Buprenophine analogs” (dated 2013)

Chains of the proteins cited; added tags and fusions are not shown. Lines headed by an entry give the natural chain unless they say otherwise; changes in a name come on top.
UniProt P41146: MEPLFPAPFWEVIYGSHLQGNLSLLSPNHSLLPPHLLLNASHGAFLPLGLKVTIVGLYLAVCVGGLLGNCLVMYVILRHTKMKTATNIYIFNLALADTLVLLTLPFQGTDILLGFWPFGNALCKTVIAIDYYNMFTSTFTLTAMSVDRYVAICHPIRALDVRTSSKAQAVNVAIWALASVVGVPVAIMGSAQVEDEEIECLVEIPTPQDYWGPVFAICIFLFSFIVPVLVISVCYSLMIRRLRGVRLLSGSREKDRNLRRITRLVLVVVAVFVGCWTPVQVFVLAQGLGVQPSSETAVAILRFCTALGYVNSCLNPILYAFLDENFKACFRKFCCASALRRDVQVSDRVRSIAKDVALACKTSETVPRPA

How the values were obtained:
[1] = biological target: ORL-1 (Homo sapiens (Human), UniProt P41146); conditions: read-out: IC50 ORL-1 (partial agonist); Wnendt et al. 1999; cited from earlier work
[2] = test system: rats; test: Assessment of respiratory depression, arterial blood gas analysis; conditions: for sO2 (oxygen saturation in blood samples), post hoc significance vs. water: 30 mg/kg SC

7-benzylidenenaltrexone
IC50 [1]: 10 µM

CN1CC[C@]23c4c5ccc(O)c4O[C@H]2[C@@H](O)C=C[C@H]3[C@H]1C5
oxygen tension, oxygen saturation and pH in blood samples ([2]; rats given effective doses): significantly decreased | sO2 (oxygen saturation in blood samples), post hoc significance vs. water ([2]; rats, 1 hour): *** (“***” = statistically significant, p < 0.001 vs. water group) | sO2 (oxygen saturation in blood samples), post hoc significance vs. water ([2]; rats, 3 hours): *** (“***” = statistically significant, p < 0.001 vs. water group) | sO2 (oxygen saturation in blood samples), post hoc significance vs. water ([2]; rats, 5 hours): ns | sO2 (oxygen saturation in blood samples), post hoc significance vs. water ([2]; rats, 24 hours): ns | sO2 (oxygen saturation in blood samples), post hoc significance vs. water ([2]; rats, Baseline): ns

COc1ccc2c3c1O[C@H]1[C@@]4(OC)CC[C@@]5(C[C@@H]4COCc4ccccc4)[C@@H](C2)N(CC2CC2)CC[C@]315
respiratory depression ([2]; rats, doses up to 20 mg/kg): did not induce respiratory depression
